Laboratory results from patent US8962608B2, “Cycloalkylnitrile pyrazole carboxamides as janus kinase inhibitors” (Merck Sharp & Dohme Corp., priority 2011, dated 2015).

Protein sequences, listed by entry. Tags and fused reporters are not part of them. Residues count along the entry.
UniProt O60674, 849-1124: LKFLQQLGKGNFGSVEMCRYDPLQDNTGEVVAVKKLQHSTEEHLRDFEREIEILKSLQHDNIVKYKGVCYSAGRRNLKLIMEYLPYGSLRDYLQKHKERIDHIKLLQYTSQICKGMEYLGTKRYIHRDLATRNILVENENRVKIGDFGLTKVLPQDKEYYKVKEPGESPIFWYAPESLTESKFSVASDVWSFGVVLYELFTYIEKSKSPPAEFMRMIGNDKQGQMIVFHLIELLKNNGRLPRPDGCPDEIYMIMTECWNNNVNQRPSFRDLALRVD

What follows are molecules tested against JAK2 (recombinant purified GST-tagged catalytic domain) (Homo sapiens (Human), UniProt O60674) (assay: biochemical).
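Note: biochemical JAK kinase assay with HTRF detection.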

Compared with N#C[C@H]1C[C@H](O)CCC1n1cc(C(N)=O)c(Nc2ccnc(F)c2)n1 (mixture of isomers) [Example 15, 1-[(1S,2S,4R and 1R,2R,4S)-2-Cyano-4-hydroxycyclohexyl]-3-[(2-fluoropyridin-4-yl)amino]-1H-pyrazole-4-carboxamide], N#C[C@H]1C[C@@H](O)CC[C@@H]1n1cc(C(N)=O)c(Nc2ccc(Cl)c(F)c2)n1 (single isomer, unassigned) [Example 33-3, 3-[(4-chloro-3-fluorophenyl)amino]-1-[(1S,2S,4S or 1R,2R,4R)-2-cyano-4-hydroxycyclohexyl]-1H-pyrazole-4-carboxamide] is 3.8-fold lower in IC50: 46 nM for the first, 12 nM for the second. The second is the more potent here.

Going from CC(C)(c1ccc(Nc2nn([C@H]3CC[C@](C)(O)C[C@@H]3C#N)cc2C(N)=O)cc1)C(O)C(F)(F)F (single isomer, unassigned) [Example 32-3, 1-[(1S,2S,4S or 1R,2R,4R)-2-cyano-4-hydroxy-4-methylcyclohexyl]-3-{[4-(3,3,3-trifluoro-(2R or 2S)-hydroxy-1,1-dimethylpropyl)phenyl]amino}-1H-pyrazole-4-carboxamide] to N#C[C@H]1CCCC[C@@H]1n1cc(C(N)=O)c(Nc2ccc(C(F)(F)F)cc2)n1 (single isomer, unassigned) [Example 17-105, 1-[(1S,2S or 1R,2R)-2-cyanocyclohexyl]-3-{[4-(trifluoromethyl)phenyl]amino}-1H-pyrazole-4-carboxamide], the IC50 rises from 3 nM to 19 nM (6.3-fold). The first is the more potent here.

First: N#C[C@@H]1C[C@H](C(=O)N2CC(F)C2)CC[C@H]1n1cc(C(N)=O)c(Nc2ccc(Cl)cc2)n1 (single isomer, unassigned) [Example 35-33, 3-[(4-chlorophenyl)amino]-1-{(1R,2R,4R or 1S,2S,4S)-2-cyano-4-[(3-fluoroazetidin-1-yl)carbonyl]cyclohexyl}-1H-pyrazole-4-carboxamide]
Second: N#C[C@H]1C[C@@H](C(=O)N2CC(F)C2)CC[C@@H]1n1cc(C(N)=O)c(Nc2ccc(Cl)cc2)n1 (single isomer, unassigned) [Example 35-34, 3-[(4-chlorophenyl)amino]-1-{(1S,2S,4S or 1R,2R,4R)-2-cyano-4-[(3-fluoroazetidin-1-yl)carbonyl]cyclohexyl}-1H-pyrazole-4-carboxamide]
The IC50 of the first is 8.7-fold higher: 200 nM for the first, 23 nM for the second. The second is the more potent here.

Compared with N#C[C@H]1C[C@@H](N2CC(O)(C(F)(F)F)C2)CC[C@@H]1n1cc(C(N)=O)c(Nc2ccc(C(F)(F)F)cc2)n1 (single isomer, unassigned) [Example 28-200, 1-{(1S,2S,4S or 1R,2R,4R)-2-cyano-4-[3-hydroxy-3-(trifluoromethyl)azetidin-1-yl]cyclohexyl}-3-{[4-(trifluoromethyl)phenyl]amino}-nvrazole-4-carboxamide], N#C[C@H]1C[C@H](N2CC(O)(C(F)(F)F)C2)CC[C@@H]1n1cc(C(N)=O)c(Nc2ccc(C(F)(F)F)cc2)n1 (single isomer, unassigned) [Example 28-201, 1-{(1S,2S,4R or 1R,2R,4S)-2-cyano-4-[3-hydroxy-3-(trifluoromethyl)azetidin-1-yl]cyclohexyl}-3-{[4-(trifluoromethyl)phenyl]amino}-1H-pyrazole-4-carboxamide] is 2.7-fold higher in IC50: 23 nM for the first, 62 nM for the second. The first is the more potent here.

Going from COC1CN([C@H]2CC[C@H](n3cc(C(N)=O)c(Nc4ccc(C(F)(F)F)cc4)n3)[C@@H](C#N)C2)C1 (single isomer, unassigned) [Example 28-99, 1-[(1S,2S,4S or 1R,2R,4R)-2-cyano-4-(3-methoxyazetidin-1-yl)cyclohexyl]-3-{[4-(trifluoromethyl)phenyl]amino}-1H-pyrazole-4-carboxamide] to N#C[C@H]1C[C@H](N2CC(O)C2)CC[C@@H]1n1cc(C(N)=O)c(Nc2ccc(S(=O)(=O)C(F)(F)F)cc2)n1 (single isomer, unassigned) [Example 28-150, 1-[(1S,2S,4R or 1R,2R,4S)-2-cyano-4-(3-hydroxyazetidin-1-yl)cyclohexyl]-3-({4-[(trifluoro-methyl)sulfonyl]phenyl}amino)-1H-pyrazole-4-carboxamide], the IC50 falls from 32 nM to 2 nM (16-fold).

First: C[C@](O)(c1ccc(Nc2nn([C@H]3CCCC[C@@H]3C#N)cc2C(N)=O)cn1)C(F)F (single isomer, unassigned) [Example 17-39, 1-[(1S,2S or 1R,2R)-2-cyanocyclohexyl]-3-({6-[(1S or 1R)-2,2-difluoro-1-hydroxy-1-methylethyl]pyridin-3-yl}amino)-1H-pyrazole-4-carboxamide]
Second: C[C@@](O)(c1ccc(Nc2nn([C@H]3CCCC[C@@H]3C#N)cc2C(N)=O)cn1)C(F)(F)F (single isomer, unassigned) [Example 17-35, 1-[(1S,2S or 1R,2R)-2-cyanocyclohexyl]-3-({6-[(1R or 1S)-2,2,2-trifluoro-1-hydroxy-1-methylethyl]pyridin-3-yl}amino)-1H)-pyrazole-4-carboxamide]
The IC50 of the first is 5-fold lower: 3 nM for the first, 15 nM for the second. The first is the more potent here.

Going from C=C[C@]1(O)CC[C@H](n2cc(C(N)=O)c(Nc3ccc(Cl)cc3)n2)[C@@H](C#N)C1 (single isomer, unassigned) [Example 32-5, 3-[(4-chlorophenyl)amino]-1-[(1S,2S,4S or 1R,2R,4R)-2-cyano-4-ethenyl-4-hydroxycyclohexyl]-1H-pyrazole-4-carboxamide] to C=C[C@@]1(O)CC[C@H](n2cc(C(N)=O)c(Nc3ccc(Cl)cc3)n2)[C@@H](C#N)C1 (single isomer, unassigned) [Example 32-16, 3-[(4-chlorophenyl)amino]-1-[(1S,2S,4R or 1R,2R,4S)-2-cyano-4-ethenyl-4-hydroxycyclohexyl]-1H-pyrazole-4-carboxamide], the IC50 falls from 25 nM to 6 nM (4.2-fold). The second is the more potent here.

CC(C)NS(=O)(=O)c1ccc(Nc2nn([C@H]3CCCC[C@@H]3C#N)cc2C(N)=O)cc1 (single isomer, unassigned) [Example 17-93, 1-[(1R,2R or 1S,2S)-2-cyanocyclohexyl]-3-({4-[(1-methylethyl)sulfamoyl]phenyl}amino)-1H-pyrazole-4-carboxamide] and N#C[C@@H]1CCCCC1n1cc(C(N)=O)c(Nc2ccc(S(=O)(=O)CC(F)(F)F)cc2)n1 (single isomer, unassigned) [Example 43-8, 1-[(1S,2S or 1R,2R)-2-cyanocyclohexyl]-3-({4-[(2,2,2-trifluoroethyl)sulfonyl]phenyl}amino)-1H-pyrazole-4-carboxamide] are the same in IC50: 1 nM for the first, 1 nM for the second.

First: CC(C)N[C@H]1CC[C@H](n2cc(C(N)=O)c(Nc3ccc(S(=O)(=O)C(F)(F)F)cc3)n2)[C@@H](C#N)C1 (single isomer, unassigned) [Example 28-174, 1-{(1S,2S,4S or 1R,2R,4R)-2-cyano-4-[(1-methylethyl)amino]cyclohexy}-3-({4-[(trifluoro-methyl)sulfonyl]phenyl}amino)-1H-pyrazole-4-carboxamide]
Second: CNC1CCC(n2cc(C(N)=O)c(Nc3ccc(S(=O)(=O)C(F)(F)F)cc3)n2)[C@@H](C#N)C1 (mixture of isomers) [Example 27-6, 1-[(1S,2S and 1R,2R)-2-cyano-4-(methylamino)cyclohexyl]-3-({4-[(trifluoromethyl)sulfonyl]phenyl}amino)-1H-pyrazole-4-carboxamide]
The IC50 of the first is 1.6-fold higher: 8 nM for the first, 5 nM for the second.

Compared with N#C[C@H]1C[C@@H](C(=O)N2CCC(F)(F)C2)CC[C@@H]1n1cc(C(N)=O)c(Nc2ccc(Cl)cc2)n1 (single isomer, unassigned) [Example 35-28, 3-[(4-chlorophenyl)amino]-1-{(1S,2S,4S or 1R,2R,4R)-2-cyano-4-[(3,3-difluoropyrrolidin-1-yl)carbonyl]cyclohexyl}-1H-pyrazole-4-carboxamide], N#C[C@H]1C[C@@H](N2CC(O)(C(F)(F)F)C2)CCC1n1cc(C(N)=O)c(Nc2ccc(Cl)cc2)n1 (single isomer, unassigned) [Example 28-213, 3-[(4-chlorophenyl)amino]-1-{(1S,2S,4S or 1R,2R,4R)-2-cyano-4-[3-hydroxy-3-(trifluoromethyl)azetidin-1-yl]cyclohexyl}-1H-pyrazole-4-carboxamide] is 9.6-fold lower in IC50: 115 nM for the first, 12 nM for the second. The second is the more potent here.

Compared with N#C[C@H]1C[C@H](N2CC3(CCC3)C2)CC[C@@H]1n1cc(C(N)=O)c(Nc2ccc([C@H](O)C(F)(F)F)cc2)n1 (single isomer, unassigned) [Example 28-51, 1-[(1S,2S,4R or 1R,2R,4S)-4-(2-azaspiro[3.3]hept-2-yl)-2-cyanocyclohexyl]-3-({4-[(1S or 1R)-2,2,2-trifluoro-1-hydroxyethyl]phenyl}amino)-1H-pyrazole-4-carboxamide], N#C[C@H]1C[C@@H](N2CCC2)CC[C@@H]1n1cc(C(N)=O)c(Nc2ccc(CC(F)(F)F)cc2)n1 (single isomer, unassigned) [Example 28-69, 1-[(1S,2S,4S or 1R,2R,4R)-4-azetidin-1-yl-2-cyanocyclohexyl]-3-{[4-(2,2,2-trifluoroethyl)phenyl]amino}-1H-pyrazole-4-carboxamide] is 2.3-fold lower in IC50: 37 nM for the first, 16 nM for the second.

Going from CN(C)[C@H]1CC[C@H](n2cc(C(N)=O)c(Nc3ccc(F)cc3)n2)[C@@H](C#N)C1 (single isomer, unassigned) [Example 28-94, 1-[(1S,2S,4S or 1R,2R,4S)-2-cyano-4-(dimethylamino)cyclohexyl]-3-[(4-fluorophenyl)amino]-1H-pyrazole-4-carboxamide] to CC(C)(CF)c1ccc(Nc2nn([C@H]3CC[C@@H](O)C[C@@H]3C#N)cc2C(N)=O)cc1 (single isomer, unassigned) [Example 25-9, 1-[(1S,2S,4R or 1R,2R,4S)-2-cyano-4-hydroxycyclohexyl]-3-{[4-(2-fluoro-1,1-dimethylethyl)phenyl]amino}-1H-pyrazole-4-carboxamide], the IC50 falls from 44 nM to 6 nM (7.3-fold).

Compared with N#C[C@@H]1CCCCC1n1cc(C(N)=O)c(Nc2ccc(S(=O)(=O)CC(F)(F)F)cc2)n1 (single isomer, unassigned) [Example 43-7, 1-[(1S,2S or 1R,2R)-2-cyanocyclohexyl]-3-({4-[(2,2,2-trifluoroethyl)sulfonyl]phenyl}amino)-1H-pyrazole-4-carboxamide], CN(C)[C@H]1CC[C@H](n2cc(C(N)=O)c(Nc3ccc(F)cc3)n2)[C@@H](C#N)C1 (single isomer, unassigned) [Example 28-129, 1-[(1S,2S,4S or 1R,2R,4R)-2-cyano-4-(dimethylamino)cyclohexyl]-3-[(4-fluorophenyl)amino]-1H-pyrazole-4-carboxamide] is 34-fold higher in IC50: 18 nM for the first, 620 nM for the second. The first is the more potent here.
